Measured values as given in US8188128B2, “Opioid receptor subtype-selective agents” (The University of Medicine and Dentistry of New Jersey, priority 2005, dated 2012).

The chains behind the UniProt entries cited, without tags or fusion partners.
UniProt P42866, whole entry: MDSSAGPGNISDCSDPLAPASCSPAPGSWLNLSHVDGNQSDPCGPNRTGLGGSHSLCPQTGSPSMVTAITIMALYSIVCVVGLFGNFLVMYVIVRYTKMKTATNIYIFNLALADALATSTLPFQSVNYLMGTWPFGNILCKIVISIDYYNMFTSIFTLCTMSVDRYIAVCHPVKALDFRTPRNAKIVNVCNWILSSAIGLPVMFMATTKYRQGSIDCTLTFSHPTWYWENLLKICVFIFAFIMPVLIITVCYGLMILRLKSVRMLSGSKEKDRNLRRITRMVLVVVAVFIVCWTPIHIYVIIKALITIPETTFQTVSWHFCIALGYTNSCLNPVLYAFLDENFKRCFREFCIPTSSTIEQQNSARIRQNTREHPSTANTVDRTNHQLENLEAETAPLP

Target: T1, mu receptor (Mus musculus, UniProt P42866)
T1 construct: expressed in transfected cells
Experiment: Opioid receptor binding assay, μ, [3H]DAMGO, HEK 293 cell membranes
Set-up: species or system rat
Details: inhibition of [3H]DAMGO, HEK 293 cell membrane; compounds of Formula I
Procedure: Receptor binding assay: Cell membrane preparations were obtained from HEK 293-stable transfectants expressing either the murine δ or μ or the human κ receptor. Opioid receptor binding assays were conducted in duplicate on membrane preparations that had been resuspended in 50 mM Tris-HCl, pH 7.5, utilizing [^3H]DPDPE, [^3H]DAMGO and [^3H]U69593 as radiologand for δ, μ, and κ respectively and 10 μM cyclazocine to define non-specific binding. Following a 1 hour incubation on ice, binding assays were terminated by filtration through Whatman GF/B filters. Filters were soaked in Ecoscint liquid scintillation solution (National Diagnostics, Manville, N.J.) and filter-bound radioactivity was measured using a Packard Tri-Carb 2100 TR liquid scintillation analyzer. Receptor binding data was analyzed by non-linear regression of saturation and competition curves using Prisim 3.0 software (GraphPad Software, San Diego, Calif.). Protein concentrations were determined with the Bio-Rad protein using bovine serum albumin as the standard.

CN(C)Cc1nc(-c2ccc(C(C)(C)C)cc2)n(-c2cccc(O)c2)n1 [DOP108, 3-[5-(4-tert-Butyl-phenyl)-3-dimethylaminomethyl-[1,2,4,]triazole-1-yl]-phenol]
IC50: > 10000 nM
